# Assay results taken from patent publication US20260007679A1, “METHODS OF TREATING CANCER USING 3-(4-((4-(MORPHOLINOMETHYL)BENZYL)OXY)-1-OXOISOINDOLIN-2-YL)PIPERIDINE-2,6-DIONE” (Celgene Corporation, priority 2012, published 2026).
# Columns and labels:
# Format in all cases: cell-based
# [1] = tested on: Revlimid-resistant NCI-H929 R4-10; assay: Proliferation and viability by 7-AAD staining; conditions: Homo sapiens, NCI-H929, 120 h, read-out: IC50, proliferation
# [2] = tested on: Revlimid-resistant NCI-H929 R3-10; assay: Proliferation and viability by 7-AAD staining; conditions: Homo sapiens, NCI-H929, 120 h, read-out: IC50, proliferation
# OCI-Ly10 = assay: 5 day 3H thymidine incorporation; conditions: Homo sapiens, ABC subtype
# Method: (§1) A panel of DLBCL cell lines of various cytogenetic features was tested for their sensitivity to the antiproliferative activity of compounds I and I-S (FIG. 17). Cells were treated with the tested compound for 5 days at 37° C.; proliferation of cells was determined using ^3H-thymidine incorporation method. […] ABC-subtype cells appear more sensitive to the antiproliferative effect than other subtype cells including GCB-DLBCL and PMBL cells.
# SUDHL4 = assay: 5 day 3H thymidine incorporation; conditions: Homo sapiens, SU-DHL-4; GCB subtype
# Method: as §1
# RIVA = assay: 5 day 3H thymidine incorporation; conditions: ABC subtype
# Method: as §1
# OCI-Ly3 = assay: 5 day 3H thymidine incorporation; conditions: Homo sapiens, ABC subtype
# Method: as §1
# Karpas-1106P = assay: 5 day 3H thymidine incorporation; conditions: Homo sapiens, PMBL
# Method: as §1
# U2932 = assay: 5 day 3H thymidine incorporation; conditions: Homo sapiens, ABC subtype
# Method: as §1
# OCI-Ly19 = assay: 5 day 3H thymidine incorporation; conditions: Homo sapiens, GCB subtype
# Method: as §1
# WSU-DLCL2 = assay: 5 day 3H thymidine incorporation; conditions: Homo sapiens, WSUDLCL2; GCB subtype
# Method: as §1
# TMD8 = assay: 5 day 3H thymidine incorporation; conditions: Homo sapiens, ABC subtype
# Method: as §1
# [3] = tested on: NCI-H929 cells (Control, Revlimid-sensitive, parental); assay: Proliferation and viability by 7-AAD staining; conditions: Homo sapiens, NCI-H929, 120 h, read-out: IC50, proliferation
# [4] = tested on: Revlimid-resistant NCI-H929 R1-10; assay: Proliferation and viability by 7-AAD staining; conditions: Homo sapiens, NCI-H929, 120 h, read-out: IC50, proliferation
# [5] = tested on: Revlimid-resistant NCI-H929 R2-10; assay: Proliferation and viability by 7-AAD staining; conditions: Homo sapiens, NCI-H929, 120 h, read-out: IC50, proliferation
compound,measurement,setting,value
"Nc1cccc2c1CN(C1CCC(=O)NC1=O)C2=O (centres unmarked) [Revlimid, lenalidomide, reference compound]",pIC50,[1],< 4.52
same,pIC50,[2],< 4.52
same,pIC50,OCI-Ly10,6.82
same,pIC50,SUDHL4,< 4.00
same,pIC50,RIVA,< 4.00
same,pIC50,OCI-Ly3,< 4.00
same,pIC50,Karpas-1106P,< 4.00
same,pIC50,U2932,5.80
same,pIC50,OCI-Ly19,< 4.00
same,pIC50,WSU-DLCL2,< 4.00
same,pIC50,TMD8,4.12
same,pIC50,[3],6.00
same,pIC50,[4],< 4.52
same,pIC50,[5],< 4.52

# pIC50: −log10 of the molar value.
